This passage reports IC50 results from ChEMBL document CHEMBL1143182, “Design and synthesis of DPP-IV inhibitors lacking the electrophilic nitrile group” (Bioorg Med Chem, 2008).

Amino acid sequences for entries named in this document (tags omitted). A change or cut given only in a name is not applied to a line headed by its entry.
UniProt P14740: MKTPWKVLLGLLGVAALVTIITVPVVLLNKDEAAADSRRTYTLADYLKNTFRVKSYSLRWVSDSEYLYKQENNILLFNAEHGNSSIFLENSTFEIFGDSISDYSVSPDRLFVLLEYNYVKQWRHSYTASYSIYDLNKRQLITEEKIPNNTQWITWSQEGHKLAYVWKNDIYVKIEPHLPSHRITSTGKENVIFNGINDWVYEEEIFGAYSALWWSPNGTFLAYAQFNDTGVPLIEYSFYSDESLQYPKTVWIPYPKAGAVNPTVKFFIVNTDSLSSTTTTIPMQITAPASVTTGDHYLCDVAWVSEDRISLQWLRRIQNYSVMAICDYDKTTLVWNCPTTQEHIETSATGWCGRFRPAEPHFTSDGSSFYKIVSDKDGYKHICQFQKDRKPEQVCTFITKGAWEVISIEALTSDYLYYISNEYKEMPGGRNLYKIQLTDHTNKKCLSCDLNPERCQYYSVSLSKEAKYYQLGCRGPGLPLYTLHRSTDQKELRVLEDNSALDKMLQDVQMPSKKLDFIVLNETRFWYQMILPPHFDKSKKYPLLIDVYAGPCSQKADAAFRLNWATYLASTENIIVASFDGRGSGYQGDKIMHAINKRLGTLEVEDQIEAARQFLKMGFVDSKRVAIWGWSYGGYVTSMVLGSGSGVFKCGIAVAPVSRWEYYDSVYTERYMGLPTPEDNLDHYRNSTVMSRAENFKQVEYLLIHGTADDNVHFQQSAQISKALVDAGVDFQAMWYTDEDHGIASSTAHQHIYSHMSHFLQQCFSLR

As usually defined, the IC50 is the concentration needed to halve the response being measured.

For the assay, the target named is Dipeptidyl peptidase 4 (Rattus norvegicus, UniProt P14740). Description: Inhibition of DPP4 in rat plasma by fluorescence assay. It is filed as cell-free. The gist of the method:
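Rat plasma (50 µL) with Gly-Pro-AMC (25 µL of 120 µM), water and test compound at various concentrations in 100 µL total, 37 °C for 15 min. Fluorescence read at ex 355/em 460 nm. Percent inhibition relative to solvent alone; IC50 by logistic regression.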

Regarding `Cc1csc(N2CCN(C(=O)[C@@H]3CN[C@H](C(=O)N4CCCC4)C3)CC2)n1`, the half-inhibitory concentration (IC50) came out at 61 nM.
